## Yeast mating assay 2: variants of the scFv Ab-95

Reference: Engelhart et al. 2022, doi:10.1038/s41597-022-01779-4. File: FLAb, binding data.

Binding partner: SARS-CoV-2 spike HR2 peptide, sequence PDVDLGDISGINAS.

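The parent was found by panning a naive human phage display library on the peptide. The library (AAYL52) carries one to three amino acid substitutions per variant, with no insertions or deletions. In AlphaSeq, yeast of one mating type display the scFv and yeast of the other type display the target. The frequency of each diploid, read from paired DNA barcodes, reflects how well the two displayed proteins bind. Each replicate has its own calibration line, from reference interactions of the BCL2 family. Mating was done three times.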

Parent scFv Ab-95: VH joined to VL by a (GGGGS)3 linker. Changes lie in the light chain CDRs alone.
VH: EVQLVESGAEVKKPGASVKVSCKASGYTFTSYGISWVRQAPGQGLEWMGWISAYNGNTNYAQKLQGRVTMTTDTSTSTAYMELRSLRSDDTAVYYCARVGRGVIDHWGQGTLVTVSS
VL: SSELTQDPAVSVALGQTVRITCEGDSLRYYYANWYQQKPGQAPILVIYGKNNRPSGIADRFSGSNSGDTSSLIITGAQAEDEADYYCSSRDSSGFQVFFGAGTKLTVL

Each variant is given by its three light chain CDRs, as the data file delimits them; those of the parent are EGDSLRYYYAN, GKNNRPS, SSRDSSGFQVF. Affinities are written as log10 Kd with Kd in nM; a lower number is a better binder. "ND" means that the variant was in the library but no mating with the target was seen in that replicate; the authors take this as a sign of poor binding, and no number exists. Three control strains display no target. For library AAYL52, 28% of the pairings with them gave a signal, with a median of 3.91 and one signal in twenty below 2.90, so weak values seen in few replicates may be background. Also given: how often the same scFv was detected with the empty control strains, with their mean in brackets. In this assay the parent's reference entry averaged 2.31; its copy inside this library read 2.25.

CDR-L1,CDR-L2,CDR-L3,"replicates, log10 nM",empty controls
EGDSLRYYYAN,GRNNSPS,SSRDSSGYQVF,2.61 / 2.15 / ND,2 of 9 (3.46)
NGDSLRYYYAN,GKNNRPR,SSRDSSGFQVR,ND / 5.12 / ND,1 of 9 (3.60)
EGDSLRYYYAN,TKNNRPS,SSNDSEGFQVF,ND / ND / ND,0 of 9
EGDSLRYYAAN,GKNNRPS,SSGTSSGFQVF,ND / ND / ND,1 of 9 (3.90)
EGDSLRYYYAN,GINNFPS,SSRDSSGFQVF,ND / ND / ND,1 of 9 (3.71)
EGDSLRYYYAN,GKANRYS,SSRDSSGFQVF,3.60 / 3.30 / 2.72,6 of 9 (4.52)
EGDSARYYYAN,GKNNRPS,SSRDSSGFCMF,4.30 / ND / 4.44,2 of 9 (3.69)
EGDSLGYMYAN,GKNNRPS,SSRDSSGFQVF,2.03 / 1.83 / 1.41,5 of 9 (4.26)
AGDSLRYYYAN,EKNNRPS,SSEDSSGFQVF,ND / 3.81 / ND,2 of 9 (3.69)
EGDSLRYYYAN,GKNHWPS,SSRDSSGPQVF,ND / 3.26 / 3.63,2 of 9 (3.88)
EGDSLRYYVAN,GKNNRPS,SSRDSSGFQSF,ND / ND / 4.13,3 of 9 (3.71)
EGDSLRYYYYN,GKNNRPI,SSKDSSGFQVF,ND / ND / 3.91,0 of 9
EGDSLRYYYAN,GKNNSPA,SSRHSSGFQVF,2.54 / 2.96 / 3.99,6 of 9 (3.91)
EADSLRYYYIN,GKNNRPS,SYRDSSGFQVF,ND / 4.11 / ND,2 of 9 (4.91)
EGDRLRYYYKN,GKNNRPS,SSRDSSMFQVF,3.70 / ND / ND,1 of 9 (4.34)
EGDSLRYYLSN,GKHNRPS,SSRDSSGFQVF,ND / ND / ND,0 of 9
EGDLLRYYYQN,GKNNRPS,SSRDSSGFQAF,3.74 / 5.28 / 3.25,3 of 9 (3.11)
EGTSFRYYYAN,DKNNRPS,SSRDSSGFQVF,3.14 / 2.94 / 2.79,1 of 9 (4.68)
EGCSLRYCYAL,GKNNRPS,SSRDSSGFQVF,4.34 / 3.86 / 3.85,5 of 9 (3.62)
EGDSLCYYYAN,GKNNRVS,SSRDSSGFQVF,3.13 / 3.97 / 3.39,1 of 9 (3.09)
EIDSLRYYYAN,GKNNRPS,SSRDSSGQYVF,ND / ND / ND,2 of 9 (3.89)
EGDSLRYYYAN,GKQNRPS,SLRDSSGFEVF,2.91 / 2.47 / 3.73,4 of 9 (4.22)
EGDSLRYYYAN,LKNNRPS,SSRLSSGFQVF,ND / ND / ND,1 of 9 (3.56)
EGQSLRYYYAN,GKNNRPS,SSRDQSGFQVN,2.65 / 2.62 / 2.62,1 of 9 (4.07)
EGDSLRYKYAN,GKNNRPS,SSCDSMGFQVF,ND / ND / ND,0 of 9
EGDSLLYYYAN,PKNNRPS,SSRDSKGFQVF,ND / ND / ND,1 of 9 (3.27)
EGDSLRYYYAN,GKINRPS,SSVDSSGFTVF,4.37 / 4.90 / ND,2 of 9 (4.88)
NGDSLRYYYAR,GVNNRPS,SSRDSSGFQVF,3.05 / 5.41 / 2.46,5 of 9 (3.88)
EGDSLRYYYAN,GKNNRRS,SMRDSSGHQVF,5.05 / ND / ND,0 of 9
EGDSLRGPYAN,GKNNRPS,SSRDSSGFQVH,1.86 / 1.77 / 1.20,4 of 9 (4.77)
EGDSLRYYYAN,GKNNRPS,SSRTSHGWQVF,ND / ND / 3.05,0 of 9
EGDSLRYYYAN,MKNNRPS,SSRMLSGFQVF,4.66 / 4.28 / ND,4 of 9 (3.62)
EGDLLRGYEAN,GKNNRPS,SSRDSSGFQVF,2.26 / 2.28 / 2.09,5 of 9 (3.72)

The opening 3 entries, copied out:

CDR-L1,CDR-L2,CDR-L3,"replicates, log10 nM",empty controls
EGDSLRYYYAN,GRNNSPS,SSRDSSGYQVF,2.61 / 2.15 / ND,2 of 9 (3.46)
NGDSLRYYYAN,GKNNRPR,SSRDSSGFQVR,ND / 5.12 / ND,1 of 9 (3.60)
EGDSLRYYYAN,TKNNRPS,SSNDSEGFQVF,ND / ND / ND,0 of 9